Test results from ChEMBL document CHEMBL2057175, “New structure-activity relationships of A- and D-ring modified steroidal aromatase inhibitors: design, synthesis, and biochemical evaluation” (J Med Chem, 2012).

Amino acid sequences for entries named in this document (tags omitted). A change or cut given only in a name is not applied to a line headed by its entry.
UniProt P11511: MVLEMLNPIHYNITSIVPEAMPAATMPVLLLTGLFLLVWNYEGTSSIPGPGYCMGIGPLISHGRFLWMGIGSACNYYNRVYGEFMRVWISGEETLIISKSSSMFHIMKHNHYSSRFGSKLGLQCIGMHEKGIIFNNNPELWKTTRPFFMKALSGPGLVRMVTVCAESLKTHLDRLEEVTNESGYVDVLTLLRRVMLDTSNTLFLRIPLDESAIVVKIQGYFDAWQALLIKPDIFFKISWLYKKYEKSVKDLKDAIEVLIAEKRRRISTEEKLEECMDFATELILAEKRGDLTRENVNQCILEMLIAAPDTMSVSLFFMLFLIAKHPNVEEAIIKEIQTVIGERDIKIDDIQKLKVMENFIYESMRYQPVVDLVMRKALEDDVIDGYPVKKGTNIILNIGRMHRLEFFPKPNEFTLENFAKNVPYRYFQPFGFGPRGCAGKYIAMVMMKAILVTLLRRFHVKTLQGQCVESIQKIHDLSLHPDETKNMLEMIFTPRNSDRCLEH

Biological target: Aromatase (Homo sapiens, UniProt P11511)
Experiment: Inhibition of aromatase in human placental microsomes using [1beta-3H]androstenedione as substrate after 15 mins by liquid scintillation counting
Parameters: species or system Placenta

C[C@]12CCCC=C1CC[C@@H]1[C@@H]2CC[C@]2(C)C(=O)CC[C@@H]12
IC50: 135 nM
